Reference: ChEMBL document CHEMBL4431321, “Profiling of Flavonol Derivatives for the Development of Antitrypanosomatidic Drugs” (J Med Chem, 2016)

How the values were obtained:
[1] = Selectivity index, ratio of IC50 for human thymidylate synthase to IC50 for Trypanosoma brucei PTR1
[2] = Selectivity index, ratio of IC50 for human DHFR to IC50 for Trypanosoma brucei PTR1
[3] = Selectivity index, ratio of IC50 for human ERG to IC50 for Trypanosoma brucei PTR1

SMILES	Ratio IC50 [1]	Ratio IC50 [2]	Ratio IC50 [3]
COc1cc(-c2oc3cc(O)cc(O)c3c(=O)c2O)ccc1O [ISORHAMNETIN]	> 35	36	
O=c1c(O)c(-c2cccc(O)c2)oc2ccc(O)cc12		> 10	> 20
